IC50 data for 21 compounds are collected here from patent US20120196933A1, “MEXILETINE PRODRUGS” (priority 2010, published 2012).

Counter-ions that a name gives are not always drawn. Like-named read-outs stand apart in the source and are kept apart here.

In this test the target is hNav1.1 channel (Homo sapiens, UniProt P35498). Kind of test: Block of cloned hNav1.1 channel expressed in CHO cells (IonWorks Quattro). Particulars: hNav1.1, CHO cells.
Where [1] appears, read: read-out: IC50 10 Hz block, frequency-dependent block at 10 Hz.
The mark [2] stands for this setting: read-out: IC50 Inactivated state, inactivation state block.
The mark [3] stands for this setting: read-out: IC50 Tonic block, tonic block.
[4] abbreviates: IC50 10 Hz block, frequency-dependent block at 10 Hz.
Setting [5] is: IC50 Inactivated state, inactivation state block.

Take `Cc1cccc(C)c1OCC(C)NC(=O)[C@@H](N)C(C)(C)O` (stereo partly drawn) [Mexiletine [^α-hydroxy-(5)-valine] amide, Mexiletine [β-hydroxy-(S)-valine] amide]: the IC50 runs as follows: under setting [1], more than 1000 µM; under setting [2], 349 µM; under setting [3], more than 1000 µM.

For `Cc1cccc(C)c1OCC(C)NC(=O)[C@@H](N)CC(=O)O` (stereo partly drawn) [Mexiletine-(S)-aspartic acid amide, Mexiletine-(S)-Aspartic Acid Amide Hydrochloride], the IC50 runs as follows: under setting [4], more than 1000 µM; under setting [5], more than 1000 µM; (IC50 Tonic block, tonic block) more than 1000 µM.

`Cc1cccc(C)c1OCC(C)NC(=O)[C@@H](N)COC(N)=O` (stereo partly drawn) [Mexiletine [O-carbamoyl-(S)-serine] amide]: half-maximal inhibition under setting [4] (IC50) was put at 125 µM; the half-inhibitory concentration (IC50) under setting [5] came to 12.6 µM; the midpoint of inhibition (IC50 Tonic block, tonic block), the IC50, lay at 486 µM.

In the case of `Cc1cccc(C)c1OCC(C)NC(=O)[C@@H](N)C[S+](C)[O-].O=C(O)C(F)(F)F` (stereo partly drawn) [Mexiletine [(R)-S-methyl-cysteine, Mexiletine [(R)—S-Methyl-Cysteine Sulfoxide] Amide Trifluoroacetate], the IC50 under setting [1] came to 993 µM, the IC50 under setting [2] was found to be 201 µM and the IC50 under setting [3] was more than 1000 µM.

For the compound `Cc1cccc(C)c1OCC(C)NC(=O)[C@@H](N)CC(N)=O` (stereo partly drawn) [Mexiletine-(S)-asparagine amide], the IC50 runs as follows: under setting [4], 613 µM; under setting [5], 189 µM; (IC50 Tonic block, tonic block) more than 1000 µM.

In the case of `Cc1cccc(C)c1OCC(C)NC(=O)Oc1ccc(C(=O)O)cc1` (stereo not drawn) [Mexiletine-PHBA carbamate], the half-maximal inhibitory concentration (IC50) under setting [1] stood at 30.9 µM, the 50% inhibitory concentration (IC50) under setting [2] came out at 16.5 µM and the half-maximal inhibitory concentration (IC50) under setting [3] is 131 µM.

`Cc1cccc(C)c1OCC(C)NC(=O)C=Cc1c[nH]cn1` (stereo not drawn) [Mexiletine (urocanic acid) amide]: the IC50 by setting is: under setting [1], 426 µM; under setting [2], 252 µM; under setting [3], more than 1000 µM.

`Cc1cccc(C)c1OCC(C)NC(=O)c1ccc(N)s1` (stereo not drawn) [Mexiletine (5-aminothiophene-2-carboxylic acid) amide]: the IC50 is, setting by setting: under setting [4], 70.2 µM; under setting [5], 6.29 µM; (IC50 Tonic block, tonic block) 183 µM.

Consider `Cc1cccc(C)c1OCC(C)NC(=O)c1ccc(N)cc1` (racemic) [Mexiletine-PABA amide Hydrochloride], for which the IC50 under setting [1] was determined as 62.5 µM, the 50% inhibitory concentration (IC50) under setting [2] worked out at 20.7 µM and the IC50 under setting [3] was 129 µM.

Regarding `CNC(=N)NCCC[C@H](N)C(=O)NC(C)COc1c(C)cccc1C` (stereo partly drawn) [Mexiletine (S)-N-methylarginine amide, Mexiletine-(S)—N-Methylarginine Amide Dihydrochloride], the IC50 is more than 1000 µM under setting [4]; more than 1000 µM under setting [5]; more than 1000 µM (IC50 Tonic block, tonic block).

In the case of `CSCC[C@H](N)C(=O)NC(C)COc1c(C)cccc1C` (stereo partly drawn) [Mexiletine methionine amide, Mexiletine-(S)-Methionine Amide Hydrochloride], the IC50 reads like this: under setting [4], 5.2 µM; under setting [5], 1.3 µM; (IC50 Tonic block, tonic block) 26 µM.

For the compound `Cc1cccc(C)c1OCC(C)NC(=O)[C@@H](N)Cc1ccc(O)cc1` (stereo partly drawn) [Mexiletine (S)-tyrosine amide], the 50% inhibitory concentration (IC50) runs as follows: under setting [4], 2.96 µM; under setting [5], 1.66 µM; (IC50 Tonic block, tonic block) 13.6 µM.

`CSC[C@H](N)C(=O)NC(C)COc1c(C)cccc1C` (stereo partly drawn) [Mexiletine [(R)-S-methyl-cysteine] amide]: the IC50 stood at 38.1 µM under setting [4]; 13.1 µM under setting [5]; 99 µM (IC50 Tonic block, tonic block).

Consider `Cc1cccc(C)c1OCC(C)NC(=O)CNCC(=O)O` (stereo not drawn) [Mexiletine (carboxymethyl-glycine) amide, Mexiletine (Carboxymethyl-Glycine) Amide Hydrochloride], for which the IC50 under setting [4] is more than 1000 µM; the half-inhibitory concentration (IC50) under setting [5] was more than 1000 µM; the IC50 (IC50 Tonic block, tonic block) was more than 1000 µM.

For `Cc1cccc(C)c1OCC(C)NC(=O)[C@@H](N)CCCCN.O=C(O)C(F)(F)F.O=C(O)C(F)(F)F` (mixture of isomers) [Mexiletine (S)-lysine amide, (Rac)-Mexiletine-(S)-Lysine Ditrifluoroacetate], the IC50 is more than 1000 µM under setting [1], 868 µM under setting [2] and 844 µM under setting [3].

`Cc1cccc(C)c1OCC(C)NC(=O)CNC(=N)N` (stereo not drawn) [Mexiletine-glycocyamine amide, Mexiletine-Glycocyamine Amide Hydrochloride]: the IC50 by setting is: under setting [4], more than 1000 µM; under setting [5], 499 µM; (IC50 Tonic block, tonic block) more than 1000 µM.

As for `Cc1cccc(C)c1OCC(C)NC(=O)CCc1c[nH]cn1` (racemic) [Mexiletine dihydrourocanic acid amide], the 50% inhibitory concentration (IC50) runs as follows: under setting [1], 627 µM; under setting [2], 121 µM; under setting [3], more than 1000 µM.

For the compound `Cc1cccc(C)c1OCC(C)NC(=O)[C@@H](N)Cc1c[nH]c2ccccc12` (stereo partly drawn) [Mexiletine (S)-tryptophan amide], the 50% inhibitory concentration (IC50) runs as follows: under setting [4], 0.975 µM; under setting [5], 0.76 µM; (IC50 Tonic block, tonic block) 1.17 µM.

Consider `Cc1cccc(C)c1OCC(C)NC(=O)Cc1c[nH]c2ccccc12` (stereo not drawn) [Mexiletine (indole-3-acetic acid) amide], for which the concentration for half-maximal inhibition (IC50) is, setting by setting: under setting [4], more than 30 µM; under setting [5], 5.58 µM; (IC50 Tonic block, tonic block) more than 30 µM.

With `Cc1cccc(C)c1OCC(C)NC(=O)c1ccc(N)cc1O` (stereo not drawn) [Mexiletine (4-aminosalicylic acid) amide], the 50% inhibitory concentration (IC50) by setting is: under setting [4], 111 µM; under setting [5], 29.5 µM; (IC50 Tonic block, tonic block) 131 µM.

With `Cc1cccc(C)c1OCC(C)NC(=O)C(N)CCCNC(=N)N(C)C.Cl.Cl` (mixture of isomers) [Mexiletine-(S)—N,N-Dimethylarginine Amide Dihydrochloride], the IC50 runs as follows: under setting [1], more than 1000 µM; under setting [2], more than 1000 µM; under setting [3], more than 1000 µM.
